Columns and labels:
[1] = target: T1, full-length B-Catenin (Uniprot ID P35222) (Homo sapiens, UniProt P35222); experiment: biochemical; format: binding; conditions: beta-Catenin FP IC50 (nM), competition fluorescence polarization
T1 construct: 10 nM full-length B-Catenin (Uniprot ID P35222)

Chains of the proteins cited; added tags and fusions are not shown.
UniProt P35222, whole entry: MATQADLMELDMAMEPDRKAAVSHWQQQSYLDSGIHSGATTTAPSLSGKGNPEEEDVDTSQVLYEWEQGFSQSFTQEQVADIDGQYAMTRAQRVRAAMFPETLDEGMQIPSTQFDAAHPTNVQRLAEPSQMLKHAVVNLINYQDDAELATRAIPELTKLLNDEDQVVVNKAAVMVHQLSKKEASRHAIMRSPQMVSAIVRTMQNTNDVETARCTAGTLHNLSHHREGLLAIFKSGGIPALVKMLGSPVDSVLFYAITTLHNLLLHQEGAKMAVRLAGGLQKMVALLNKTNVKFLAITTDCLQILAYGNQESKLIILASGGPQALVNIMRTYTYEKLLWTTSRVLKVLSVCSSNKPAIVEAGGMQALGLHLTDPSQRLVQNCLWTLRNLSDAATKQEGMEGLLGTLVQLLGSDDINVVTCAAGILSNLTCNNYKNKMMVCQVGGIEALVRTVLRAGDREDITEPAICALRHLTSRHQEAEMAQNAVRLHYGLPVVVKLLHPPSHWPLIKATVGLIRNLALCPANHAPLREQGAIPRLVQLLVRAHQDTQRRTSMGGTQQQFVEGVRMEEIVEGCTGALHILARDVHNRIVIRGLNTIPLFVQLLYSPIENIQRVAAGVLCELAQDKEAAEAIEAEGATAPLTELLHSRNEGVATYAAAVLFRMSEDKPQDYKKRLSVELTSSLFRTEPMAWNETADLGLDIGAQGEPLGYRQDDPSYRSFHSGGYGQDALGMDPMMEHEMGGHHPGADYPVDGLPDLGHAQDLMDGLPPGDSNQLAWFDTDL

[2] = target: beta-catenin/TCF4 interaction (Homo sapiens, UniProt P35222); experiment: cell-based; set-up: host or cells: HEK293; conditions: NanoBRET Abs IC50 (uM)

SMILES | IC50 [1] [nM] | IC50 [2] [µM] | IC50 ([2]; absolute IC50) [µM]
CNC(=O)C[C@@H]1NC(=O)C2(CCCC=CCCCOC(=O)N3CC[C@@]4(C3)NC(=O)[C@H](CCCCNC(=O)CC[C@@H](C(=O)N[C@@H](C)C(N)=O)NC(=O)[C@H](Cc3csc5ccccc35)NC(=O)[C@H](Cc3ccsc3)NC4=O)NC(=O)[C@H](Cc3ccccc3)NC(=O)[C@H](C)NC(=O)C(C)(C)NC(=O)[C@H](Cc3cccc(C(=O)O)c3)NC1=O)CCCC=CC[C@]1(CCCN1C(C)=O)C(=O)N[C@@H](CC(=O)O)C(=O)N[C@@H](CC(C)(C)C)C(=O)N2 (relative stereo) [I-170, Ac-PL3-Asp-Npg-B5-MeAsn-3COOHF-Aib-Ala-Phe-Lys*3-PyrS2-3Thi-BztA-GlnR*3-Ala-NH2] | 50 to 200 | > 10 | 
CC(=O)N1CCC[C@]12CC=CCCCC1(CCCC=CCCCOC(=O)N3CC[C@@]4(C3)NC(=O)[C@H](CCCCNC(=O)CC[C@@H](C(=O)N[C@@H](C)C(N)=O)NC(=O)[C@H](Cc3csc5ccccc35)NC(=O)[C@H](Cc3ccsc3)NC4=O)NC(=O)[C@H](Cc3ccccc3)NC(=O)[C@H](C)NC(=O)[C@H](CCC(N)=O)NC(=O)[C@H](Cc3cccc(C(=O)O)c3)NC(=O)[C@H](CC(N)=O)NC1=O)NC(=O)[C@H](CC(C)(C)C)NC(=O)[C@H](CC(=O)O)NC2=O (relative stereo) [I-90, Ac-PL3-Asp-Npg-B5-Asn-3COOHF-Gln-Ala-Phe-Lys*3-PyrS2-3Thi-BztA-GlnR*3-Ala-NH2] | 50 to 200 | > 10 | 
CC(=O)N1CCC[C@]12CC=CCCCC1(CCCC=CCCCOC(=O)N3CC[C@@]4(C3)NC(=O)[C@H](CCCCNC(=O)CC[C@@H](C(=O)N[C@@H](C)C(=O)N[C@@H](CCC(=O)O)C(=O)N[C@@H](C)C(N)=O)NC(=O)[C@H](Cc3csc5ccccc35)NC(=O)[C@H](Cc3ccccc3C(=O)O)NC4=O)NC(=O)[C@H](Cc3cccc(C(=O)O)c3)NC(=O)[C@H](C)NC(=O)C(C)(C)NC(=O)[C@H](Cc3cccc(C(=O)O)c3)NC(=O)[C@H](CC(=O)O)NC1=O)NC(=O)[C@H](CC(C)(C)C)NC(=O)[C@H](CC(=O)O)NC2=O (relative stereo) [I-347, Ac-PL3-Asp-Npg-B5-Asp-3COOHF-Aib-Ala-3COOHF-Lys*3-PyrS2-2COOHF-BztA-GlnR*3-Ala-Glu-Ala-NH2] | 50 to 200 |  | > 10
CC(=O)N1CCC[C@]12CC=CCCCC1(CCCC=CCCCOC(=O)N3CC[C@@]4(C3)NC(=O)[C@H](CCCCNC(=O)CC[C@@H](C(=O)N[C@H](C(N)=O)C(C)C)NC(=O)[C@H](Cc3csc5ccccc35)NC(=O)[C@H](Cc3ccccc3C(F)(F)F)NC4=O)NC(=O)[C@H](Cc3ccccc3)NC(=O)[C@H](C)NC(=O)[C@H](C)NC(=O)[C@H](CN(CC(=O)O)CC(F)(F)F)NC(=O)[C@H](CC(=O)O)NC1=O)NC(=O)[C@H](CC(C)(C)C)NC(=O)[C@H](CC(=O)O)NC2=O (relative stereo) [I-129, Ac-PL3-Asp-Npg-B5-Asp-TfeGA-Ala-Ala-Phe-Lys*3-PyrS2-2F3MeF-BztA-GlnR*3-Val-NH2] | < 50 | 3 to 10 | 
CC(=O)N1CCC[C@]12CC=CCCCC1(CCCC=CCCCOC(=O)N3CC[C@@]4(C3)NC(=O)[C@H](CCCCNC(=O)CC[C@@H](C(=O)N[C@@H](C)C(N)=O)NC(=O)[C@H](Cc3csc5ccccc35)NC(=O)[C@H](Cc3ccsc3)NC4=O)NC(=O)[C@H](Cc3ccccc3)NC(=O)[C@H](C)NC(=O)C(C)(C)NC(=O)[C@H](Cc3cccc(C(=O)O)c3)NC(=O)[C@H](CC(=O)O)NC1=O)NC(=O)[C@H](CO)NC(=O)[C@H](CC(=O)O)NC2=O (relative stereo) [I-307, Ac-PL3-Asp-Ser-B5-Asp-3COOHF-Aib-Ala-Phe-Lys*3-PyrS2-3Thi-BztA-GlnR*3-Ala-NH2] | < 50 | > 10 | 
CC(=O)N1CCC[C@]12CC=CCCCC1(CCCC=CCCCOC(=O)N3CC[C@@]4(C3)NC(=O)[C@H](CCCCNC(=O)CC[C@@H](C(=O)N[C@@H](C)C(N)=O)NC(=O)[C@H](Cc3csc5ccccc35)NC(=O)[C@H](Cc3ccsc3)NC4=O)NC(=O)[C@H](Cc3csc4ccccc34)NC(=O)[C@H](C)NC(=O)C(C)(C)NC(=O)[C@H](Cc3cccc(C(=O)O)c3)NC(=O)[C@H](CC(=O)O)NC1=O)NC(=O)[C@H](CC(C)(C)C)NC(=O)[C@H](CC(=O)O)NC2=O (relative stereo) [I-355, Ac-PL3-Asp-Npg-B5-Asp-3COOHF-Aib-Ala-BztA-Lys*3-PyrS2-3Thi-BztA-GlnR*3-Ala-NH2] | < 50 |  | 3 to 10

Second part, the molecule after the results:

IC50 [1] [nM] | IC50 [2] [µM] | IC50 ([2]; absolute IC50) [µM] | SMILES
< 50 | > 10 |  | CC(=O)N1CCC[C@]12CC=CCCCC1(CCCC=CCCCOC(=O)N3CC[C@@]4(C3)NC(=O)[C@H](CCCCNC(=O)CC[C@@H](C(=O)N[C@@H](CCCN3CCOCC3)C(N)=O)NC(=O)[C@H](Cc3csc5ccccc35)NC(=O)[C@H](Cc3ccccc3C(F)(F)F)NC4=O)NC(=O)[C@H](Cc3ccccc3)NC(=O)[C@H](C)NC(=O)C(C)(C)NC(=O)[C@H](Cc3cccc(C(=O)O)c3)NC(=O)[C@H](CC(=O)O)NC1=O)NC(=O)[C@H](CC(C)(C)C)NC(=O)[C@H](CC(=O)O)NC2=O (relative stereo) [I-231, Ac-PL3-Asp-Npg-B5-Asp-3COOHF-Aib-Ala-Phe-Lys*3-PyrS2-2F3MeF-BztA-GlnR*3-MorphNva-NH2]
< 50 | > 10 |  | CC(=O)N1CCC[C@]12CC=CCCCC1(CCCC=CCCCOC(=O)N3CC[C@@]4(C3)NC(=O)[C@H](CCC(=O)NCCCC[C@@H](C(N)=O)NC(=O)[C@H](Cc3csc5ccccc35)NC(=O)[C@H](Cc3ccsc3)NC4=O)NC(=O)[C@H](Cc3ccccc3)NC(=O)[C@H](C)NC(=O)[C@H](C)NC(=O)[C@H](CC(=O)O)NC(=O)[C@H](CC(=O)O)NC1=O)NC(=O)[C@H](CC(C)C)NC(=O)[C@H](CC(=O)O)NC2=O (relative stereo) [I-6, Ac-PL3-Asp-Leu-B5-Asp-Asp-Ala-Ala-Phe-GlnR*3-PyrS2-3Thi-BztA-Lys*3-NH2]
< 50 | 3 to 10 |  | CC(=O)N1CCC[C@]12CC=CCCCC1(CCCC=CCCCOC(=O)N3CC[C@@]4(C3)NC(=O)[C@H](CCCCNC(=O)CC[C@@H](C(=O)NC(C)(C)C(N)=O)NC(=O)[C@H](Cc3csc5ccccc35)NC(=O)[C@H](Cc3ccccc3C(F)(F)F)NC4=O)NC(=O)[C@H](Cc3ccccc3)NC(=O)[C@H](C)NC(=O)[C@H](C)NC(=O)[C@H](CN(CC(=O)O)CC(F)(F)F)NC(=O)[C@H](CC(=O)O)NC1=O)NC(=O)[C@H](CC(C)(C)C)NC(=O)[C@H](CC(=O)O)NC2=O (single isomer, unassigned) [I-126, Ac-PL3-Asp-Npg-B5-Asp-TfeGA-Ala-Ala-Phe-Lys*3-PyrS2-2F3MeF-BztA-GlnR*3-Aib-NH2]
< 50 |  | 3 to 10 | CC(=O)N1CCC[C@]12CC=CCCCC1(CCCC=CCCCOC(=O)N3CC[C@@]4(C3)NC(=O)[C@H](CCCCNC(=O)CC[C@@H](C(=O)N[C@@H](C)C(N)=O)NC(=O)[C@H](Cc3csc5ccccc35)NC(=O)[C@H](Cc3ccsc3)NC4=O)NC(=O)[C@H](Cc3cccc(C(=O)O)c3)NC(=O)[C@H](C)NC(=O)C(C)(C)NC(=O)[C@H](Cc3cccc(C(=O)O)c3)NC(=O)[C@H](CC(=O)O)NC1=O)NC(=O)[C@H](CC(C)(C)C)NC(=O)[C@H](CC(=O)O)NC2=O (relative stereo) [I-345, Ac-PL3-Asp-Npg-B5-Asp-3COOHF-Aib-Ala-3COOHF-Lys*3-PyrS2-3Thi-BztA-GlnR*3-Ala-NH2]
< 50 | 3 to 10 |  | CC(=O)N1CCC[C@]12CC=CCCCC1(CCCC=CCCCOC(=O)N3CC[C@@]4(C3)NC(=O)[C@H](CCCCNC(=O)CC[C@@H](C(=O)N[C@@H](C)C(N)=O)NC(=O)[C@H](Cc3csc5ccccc35)NC(=O)[C@H](Cc3ccsc3)NC4=O)NC(=O)[C@H](Cc3ccccc3)NC(=O)[C@H](C)NC(=O)C(C)(C)NC(=O)[C@H](Cc3cccc(C(=O)O)c3)NC(=O)[C@H](CC(=O)O)NC1=O)NC(=O)[C@H](Cc1ccc(O)cc1)NC(=O)[C@H](CC(=O)O)NC2=O (relative stereo) [I-305, Ac-PL3-Asp-Tyr-B5-Asp-3COOHF-Aib-Ala-Phe-Lys*3-PyrS2-3Thi-BztA-GlnR*3-Ala-NH2]
< 50 | 3 to 10 |  | CC(=O)N1CCC[C@]12CC=CCCCC1(CCCC=CCCCOC(=O)N3CC[C@@]4(C3)NC(=O)[C@H](CCCCNC(=O)CC[C@@H](C(=O)N[C@@H](C)C(N)=O)NC(=O)[C@H](Cc3csc5ccccc35)NC(=O)[C@H](Cc3ccsc3)NC4=O)NC(=O)[C@H](Cc3ccccc3)NC(=O)[C@H](C)NC(=O)C(C)(C)NC(=O)[C@H](Cc3cccc(C(=O)O)c3)NC(=O)[C@H](CC(=O)O)NC1=O)NC(=O)[C@H](C)NC(=O)[C@H](CC(=O)O)NC2=O (relative stereo) [I-304, Ac-PL3-Asp-Ala-B5-Asp-3COOHF-Aib-Ala-Phe-Lys*3-PyrS2-3Thi-BztA-GlnR*3-Ala-NH2]
< 50 |  | 3 to 10 | CC(=O)N1CCC[C@]12CC=CCCCC1(CCCC=CCCCOC(=O)N3CC[C@@]4(C3)NC(=O)[C@H](CCCCNC(=O)CC[C@@H](C(=O)N[C@H](CC(C)C)C(N)=O)NC(=O)[C@H](Cc3csc5ccccc35)NC(=O)[C@H](Cc3ccsc3)NC4=O)NC(=O)[C@H](Cc3ccccc3)NC(=O)[C@H](C)NC(=O)C(C)(C)NC(=O)[C@H](Cc3cccc(C(=O)O)c3)NC(=O)[C@H](CC(=O)O)NC1=O)NC(=O)[C@H](CC(C)(C)C)NC(=O)[C@H](CC(=O)O)NC2=O (relative stereo) [I-462, Ac-PL3-Asp-Npg-B5-Asp-3COOHF-Aib-Ala-Phe-Lys*3-PyrS2-3Thi-BztA-GlnR*3-dLeu-NH2]
< 50 |  | > 10 | CC(=O)N1CCC[C@]12CC=CCCCC1(CCCC=CCCCOC(=O)N3CC[C@@]4(C3)NC(=O)[C@H](CCCCNC(=O)CC[C@@H](C(=O)N[C@@H](C)C(N)=O)NC(=O)[C@H](Cc3csc5ccccc35)NC(=O)[C@H](Cc3ccsc3)NC4=O)NC(=O)[C@H](Cc3ccccc3)NC(=O)[C@H](C)NC(=O)C(C)(C)NC(=O)[C@H](Cc3cccc(C(=O)O)c3)NC(=O)[C@H](CCC(=O)O)NC1=O)NC(=O)[C@H](CC(C)(C)C)NC(=O)[C@H](CC(=O)O)NC2=O (relative stereo) [I-547, Ac-PL3-Asp-Npg-B5-Glu-3COOHF-Aib-Ala-Phe-Lys*3-PyrS2-3Thi-BztA-GlnR*3-Ala-NH2]

Reference: patent US20240360179A1, “STAPLED PEPTIDES AND METHODS THEREOF” (FOG PHARMACEUTICALS, INC., priority 2021, published 2024)
